Source: article PMC10444810, “Induction of open-form bile canaliculus formation by hepatocytes for evaluation of biliary drug excretion” (Communications Biology, 2023)
“And” between values parts separate entries of the source, which are not always exact repeats. Identical values can stand only once. Like-named read-outs stand apart in the source and are kept apart here.

Experiments:
[1] = Reported human in vivo biliary excretion clearance and intrinsic clearance estimated from it (Eq. 4)
[2] = human, cited from earlier work
[3] = cited from earlier work
[4] = test system: sandwich-cultured PXB-cells; test: Biliary excretion activity (BEI) in sandwich-cultured PXB-cells; conditions: for Predicted in vivo CLbile, int, Mean: mean of 3 replicates; for In vitro CLbile, int / Predicted in vivo CLbile, int: replicates # 1-3; for Predicted in vivo CLbile, int: scaled from in vitro CLbile; for BEI (%) Mean / BEI (%): PXB-cells (JFC); for BEI (%) Mean: mean of 3; for BEI (%): single replicate
[5] = test system: icHep (PXB-cells on claudin-1, -2, -3, -9 coated Transwell permeable support); test: icHep permeation assay (sinusoidal to bile side) to estimate drug biliary excretion clearance; conditions: for In vitro CLbile, app: single replicates; for In vitro CLbile, int / Predicted in vivo CLbile, int: single replicate
[6] = Control, block with icHep (HUM181001B)
[7] = Control, block with icHep (JFC)

Substance: SN-38
- Observed in vivo CLbile, int ([1]; estimated from observed CLbile with fp, Rb, Qh 1400 ml/min): 4911 mL/min
- Observed in vivo CLbile, int ([1]; estimated from observed in vivo CLbile with fp, Rb and Qh 1400 ml/min): 4911 mL/min
- Observed in vivo CLbile ([2]; reported in vivo biliary excretion clearance): 42.5 mL/min
- Observed in vivo CLbile ([2]; reported value): 42.5 mL/min
- fp, unbound fraction of the plasma protein ([3]; reported value): 0.00887
- fp ([3]; unbound fraction of the plasma protein): 0.00887
- fp ([3]; unbound fraction, reported value): 0.00887
- Predicted in vivo CLbile, int, Mean ([4]; PXB-cells (JFC) B-CLEAR 2 min): 2873 mL/min
- In vitro CLbile, int ([4]; PXB-cells (JFC) B-CLEAR 2 min): 19.4 ul/min/106 cells and 13.4 ul/min/106 cells and 7.09 ul/min/106 cells
- Predicted in vivo CLbile, int ([4]; PXB-cells (JFC) B-CLEAR 2 min): 4200 mL/min and 2888 mL/min and 1531 mL/min
- Predicted in vivo CLbile, int, Mean ([4]; PXB-cells (JFC) B-CLEAR 5 min): 5000 mL/min
- Predicted in vivo CLbile, int, Mean ([4]; PXB-cells (JFC) B-CLEAR 10 min): 1090 mL/min
- In vitro CLbile, int ([4]; PXB-cells (JFC) B-CLEAR 10 min): 3.68 ul/min/106 cells and 4.29 ul/min/106 cells and 7.17 ul/min/106 cells
- Predicted in vivo CLbile, int ([4]; PXB-cells (JFC) B-CLEAR 10 min): 795 mL/min and 926 mL/min and 1549 mL/min
- Predicted in vivo CLbile, int, Mean ([4]; PXB-cells (JFC) B-CLEAR 20 min): 1099 mL/min
- In vitro CLbile, int ([4]; PXB-cells (JFC) B-CLEAR 20 min): 6.44 ul/min/106 cells and 4.98 ul/min/106 cells and 3.85 ul/min/106 cells
- Predicted in vivo CLbile, int ([4]; PXB-cells (JFC) B-CLEAR 20 min): 1390 mL/min and 1075 mL/min and 832 mL/min
- BEI (%) Mean ([4]; 2 min): 51.8%
- BEI (%) ([4]; 2 min): 63.0% and 54.0% and 38.3%
- BEI (%) Mean ([4]; 5 min): 80.9%
- BEI (%) ([4]; 5 min): 82.4% and 71.4% and 89.0%
- BEI (%) Mean ([4]; 10 min): 67.6%
- BEI (%) ([4]; 10 min): 61.8% and 65.3% and 75.9%
- BEI (%) Mean ([4]; 20 min): 81.2%
- BEI (%) ([4]; 20 min): 85.0% and 81.4% and 77.2%
- Biliary excretion clearance, in vivo, predicted, CLbile, int ([4]; sandwich-cultured PXB-cells (JFC), mean ± S.D., n = 3): 1099 ± 280 mL/min
- In vitro CLbile, app, Mean [5, 6]: 0.805 ul/min/106 cells
- In vitro CLbile, app [5, 6]: 0.822 ul/min/106 cells and 0.748 ul/min/106 cells and 0.845 ul/min/106 cells
- In vitro CLbile, app, Mean [5, 7]: 0.877 ul/min/106 cells
- In vitro CLbile, app [5, 7]: 0.845 ul/min/106 cells and 0.923 ul/min/106 cells and 0.862 ul/min/106 cells
- In vitro CLbile, int ([5]; icHep (HUM181001B)): 2.26 ul/min/106 cells and 2.43 ul/min/106 cells and 2.70 ul/min/106 cells
- Predicted in vivo CLbile, int ([5]; icHep (HUM181001B)): 488 mL/min and 525 mL/min and 582 mL/min
- Biliary excretion clearance, in vitro, observed, CLbile, int ([5]; icHep (HUM181001B), CLbile,app of icHep minus control cells): 2.46 ± 0.219 μl/min/10^6 cells
- In vitro CLbile, app, Mean ([5]; icHep (HUM181001B)): 3.27 ul/min/106 cells
- In vitro CLbile, app ([5]; icHep (HUM181001B)): 3.08 ul/min/106 cells and 3.18 ul/min/106 cells and 3.54 ul/min/106 cells
- In vitro CLbile, int ([5]; icHep (JFC)): 5.17 ul/min/106 cells and 5.32 ul/min/106 cells and 3.53 ul/min/106 cells
- Predicted in vivo CLbile, int ([5]; icHep (JFC)): 1117 mL/min and 1150 mL/min and 762 mL/min
- In vitro CLbile, app, Mean ([5]; icHep (JFC)): 5.55 ul/min/106 cells
- In vitro CLbile, app ([5]; icHep (JFC)): 6.02 ul/min/106 cells and 6.25 ul/min/106 cells and 4.39 ul/min/106 cells
